Series [1] deals with recombinant human dipeptidyl peptidase IV (DPPIV) (Homo sapiens (Human), UniProt P27487). Briefly: In vitro IC50 assay, dipeptidyl peptidase IV (Example 15). Format: biochemical. Conditions: read-out: DPPIV IC50; Gly-Pro-AMC, room temperature.
The nature of series [2]: Stability in aqueous solution of pH about 3. The note with it: during HPLC purification and subsequent lyophilization.
A short description of series [3]: Solubility in water after lyophilization.

Chains of the proteins cited; added tags and fusions are not shown.
UniProt P27487, whole entry: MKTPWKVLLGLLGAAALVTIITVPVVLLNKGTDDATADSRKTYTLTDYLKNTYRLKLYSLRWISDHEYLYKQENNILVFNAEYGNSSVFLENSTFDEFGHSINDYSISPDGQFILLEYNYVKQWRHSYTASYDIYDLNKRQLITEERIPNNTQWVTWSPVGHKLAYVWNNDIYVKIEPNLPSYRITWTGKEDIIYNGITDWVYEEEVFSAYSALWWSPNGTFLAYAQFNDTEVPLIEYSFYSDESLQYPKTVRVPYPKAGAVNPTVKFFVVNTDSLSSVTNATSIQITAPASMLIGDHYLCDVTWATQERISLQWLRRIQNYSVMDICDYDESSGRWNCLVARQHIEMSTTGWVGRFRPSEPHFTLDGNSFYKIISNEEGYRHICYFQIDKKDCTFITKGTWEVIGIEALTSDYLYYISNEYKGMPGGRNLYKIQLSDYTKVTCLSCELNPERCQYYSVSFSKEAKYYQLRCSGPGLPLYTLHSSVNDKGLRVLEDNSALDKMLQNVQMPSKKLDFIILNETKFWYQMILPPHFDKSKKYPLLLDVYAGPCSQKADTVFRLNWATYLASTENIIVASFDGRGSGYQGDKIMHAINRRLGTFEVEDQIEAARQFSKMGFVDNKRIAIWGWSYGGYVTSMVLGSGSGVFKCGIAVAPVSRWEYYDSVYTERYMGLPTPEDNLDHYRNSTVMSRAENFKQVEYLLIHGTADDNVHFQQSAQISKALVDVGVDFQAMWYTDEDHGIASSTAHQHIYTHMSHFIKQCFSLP

pIC50: −log10 of the molar value. Where only a bound is given, the exact number is not on record here.

Regarding `C[C@@H](NC(=O)[C@H]1CC[C@H](CNC(=O)CN2CCN(CC(=O)O)CCN(CC(=O)O)CCN(CC(=O)O)CC2)CC1)C(=O)N1CCC[C@H]1B(O)O`, in series [1], the pIC50 is below 4.00. For the same compound, the “degradation in aqueous solution” value in series [2] is on record as “did not observe any sign of degradation”. The compound also showed a solubility in water in series [3] above 50 mg/mL.

(Values after patent US11707539B2, “FAP-targeted radiopharmaceuticals and imaging agents, and uses related thereto” (Trustees of Tufts College, priority 2020, dated 2023).)
